Results published in patent EP2365972B1, “MODULATORS OF ATP-BINDING CASSETTE TRANSPORTERS” (Vertex Pharmaceuticals Incorporated, priority 2008, dated 2010).

Amino acid sequences for entries named in this document (tags omitted). Chains listed by the source or under a name are the forms on record and can include a tag or linker.
UniProt P13569, with tags, fused parts or gaps DEL508-508: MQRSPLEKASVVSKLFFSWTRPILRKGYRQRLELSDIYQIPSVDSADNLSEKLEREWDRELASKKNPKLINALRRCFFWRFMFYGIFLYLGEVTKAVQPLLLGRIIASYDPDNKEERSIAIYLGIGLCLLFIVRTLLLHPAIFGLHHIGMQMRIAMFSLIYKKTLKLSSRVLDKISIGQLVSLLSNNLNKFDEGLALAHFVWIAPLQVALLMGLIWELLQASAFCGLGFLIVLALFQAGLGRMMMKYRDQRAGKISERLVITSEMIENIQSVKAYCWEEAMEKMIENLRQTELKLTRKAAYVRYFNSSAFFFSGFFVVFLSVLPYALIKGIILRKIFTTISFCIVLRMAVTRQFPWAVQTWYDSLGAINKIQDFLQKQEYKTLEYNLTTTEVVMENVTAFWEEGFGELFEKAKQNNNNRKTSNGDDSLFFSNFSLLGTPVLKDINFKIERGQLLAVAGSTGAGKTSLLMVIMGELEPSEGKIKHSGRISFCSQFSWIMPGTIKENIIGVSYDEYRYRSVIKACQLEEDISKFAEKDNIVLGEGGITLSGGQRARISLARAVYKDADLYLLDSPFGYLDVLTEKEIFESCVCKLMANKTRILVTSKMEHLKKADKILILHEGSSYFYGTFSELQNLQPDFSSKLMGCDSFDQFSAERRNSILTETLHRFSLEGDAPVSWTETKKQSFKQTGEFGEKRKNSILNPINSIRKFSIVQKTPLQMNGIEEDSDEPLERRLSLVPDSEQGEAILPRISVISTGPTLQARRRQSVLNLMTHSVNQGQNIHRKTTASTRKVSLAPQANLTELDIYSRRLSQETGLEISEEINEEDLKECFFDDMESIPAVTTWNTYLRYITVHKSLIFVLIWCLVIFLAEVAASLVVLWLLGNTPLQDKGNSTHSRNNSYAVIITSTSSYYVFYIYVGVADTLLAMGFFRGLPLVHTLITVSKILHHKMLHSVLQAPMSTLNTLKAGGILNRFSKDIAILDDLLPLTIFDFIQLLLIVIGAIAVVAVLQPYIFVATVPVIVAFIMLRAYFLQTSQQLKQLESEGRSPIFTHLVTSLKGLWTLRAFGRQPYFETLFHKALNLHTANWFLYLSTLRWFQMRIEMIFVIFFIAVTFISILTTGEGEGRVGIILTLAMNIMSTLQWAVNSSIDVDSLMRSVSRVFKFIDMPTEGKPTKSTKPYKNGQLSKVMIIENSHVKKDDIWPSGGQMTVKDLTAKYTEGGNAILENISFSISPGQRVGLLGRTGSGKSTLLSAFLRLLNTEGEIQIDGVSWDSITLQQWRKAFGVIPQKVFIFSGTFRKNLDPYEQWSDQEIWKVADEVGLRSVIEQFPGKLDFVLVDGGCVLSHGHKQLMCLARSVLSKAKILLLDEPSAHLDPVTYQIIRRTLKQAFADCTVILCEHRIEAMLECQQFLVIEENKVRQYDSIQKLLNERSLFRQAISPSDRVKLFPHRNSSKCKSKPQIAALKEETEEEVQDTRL

Biological target: ΔF508-CFTR (Homo sapiens, UniProt P13569, DEL508-508)
Test: Membrane potential optical assay for ΔF508-CFTR correction (single-addition HTS format)
Details: NIH 3T3 cells expressing ΔF508-CFTR, 16-24 hrs with test compound, 10 µM forskolin and genistein (20 µM); for EC50: read-out: Binned EC50
Description: Membrane potential optical methods for assaying ΔF508-CFTR modulation properties of compounds.
The assay utilizes fluorescent voltage sensing dyes to measure changes in membrane potential using a fluorescent plate reader (e.g., FLIPR III, Molecular Devices, Inc.) as a readout for increase in functional ΔF508-CFTR in NIH 3T3 cells. The driving force for the response is the creation of a chloride ion gradient in conjunction with channel activation by a single liquid addition step after the cells have previously been treated with compounds and subsequently loaded with a voltage sensing dye.
To identify small molecules that correct the trafficking defect associated with ΔF508-CFTR; a single-addition HTS assay format was developed. Assay Plates containing cells are incubated for ∼2-4 hours in tissue culture incubator at 37°C, 5%CO2, 90% humidity. Cells are then ready for compound exposure after adhering to the bottom of the assay plates.
The cells were incubated in serum-free medium for 16-24 hrs in tissue culture incubator at 37°C, 5%CO2, 90% humidity in the presence or absence (negative control) of test compound. The cells were subsequently rinsed 3X with Krebs Ringers solution and loaded with a voltage sensing redistribution dye. To activate ΔF508-CFTR, 10 µM forskolin and the CFTR potentiator, genistein (20 µM), were added along with Cl^--free medium to each well. The addition of Cl^--free medium promoted Cl^- efflux in response to ΔF508-CFTR activation and the resulting membrane depolarization was optically monitored using voltage sensor dyes.
Bath Solution #1: (in mM) NaCl 160, KCl 4.5, CaCl2 2, MgCl2 1, HEPES 10, pH 7.4 with NaOH.
Chloride-free bath solution: Chloride salts in Bath Solution #1 are substituted with gluconate salts.
NIH3T3 mouse fibroblasts stably expressing ΔF508-CFTR are used for optical measurements of membrane potential. The cells are maintained at 37 °C in 5% CO2 and 90 % humidity in Dulbecco's modified Eagle's medium supplemented with 2 mM glutamine, 10 % fetal bovine serum, 1 X NEAA, β-ME, 1 X pen/strep, and 25 mM HEPES in 175 cm^2 culture flasks. For all optical assays, the cells were seeded at […] in 384-well matrigel-coated plates and cultured for 2 hrs at 37 °C before culturing at 27 °C for 24 hrs. for the potentiator assay. For the correction assays, the cells are cultured at 27 °C or 37 °C with and without compounds for 16 - 24 hours.

Row | Binned Max Efficacy | EC50 [nM] | Binned Max Efficacy (tested form: free compound) | EC50 (tested form: free compound) [nM] | Structure (SMILES)
1 | ++ ("++" means between 25% and 100%) | 2000 to 5000 |  |  | CC(C)(CO)c1cc2cc(NC(=O)C3(c4ccc5c(c4)OC(F)(F)O5)CC3)c(F)cc2[nH]1
2 |  |  | +++ ("+++" means > 100%) | < 2000 | CC(C)(C)c1cc2c(C#N)c(NC(=O)C3(c4ccc5c(c4)OC(F)(F)O5)CC3)ccc2n1CCO [Compound 315, N-(2-tert-butyl-4-cyano-1-(2-hydroxyethyl)-1H-indol-5-yl)-1-(2,2-difluorobenzo[d][1,3]dioxol-5-yl)cyclopropanecarboxamide]

Read-outs that look alike come from different tables or passages of the source.
